Some results for these compounds are left out of this collection, so the calls shown say nothing about other tests.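 Cells were grown in 96-well plates and exposed to each compound for 48 hours at five concentrations; endpoints were interpolated linearly between bracketing concentrations, or set to the highest concentration if not reached. The concentration for 50% growth inhibition is given as GI50.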
How the values were obtained:
Test in all cases: inhibition of tumour cell growth, NCI panel, 48 h; in the data active = GI50 below about 0.43 µM; inactive = the rest
786-0 renal = tested on: 786-0 renal
A498 renal = tested on: A498 renal
A549 NSCLC = tested on: A549 NSCLC
ACHN renal = tested on: ACHN renal
BT-549 breast = tested on: BT-549 breast
CAKI-1 renal = tested on: CAKI-1 renal
CCRF-CEM leukemia = tested on: CCRF-CEM leukemia
COLO 205 colon = tested on: COLO 205 colon
DU-145 prostate = tested on: DU-145 prostate
EKVX NSCLC = tested on: EKVX NSCLC
HCT-116 colon = tested on: HCT-116 colon
HCT-15 colon = tested on: HCT-15 colon
HL-60(TB) leukemia = tested on: HL-60(TB) leukemia
HOP-62 NSCLC = tested on: HOP-62 NSCLC
HOP-92 NSCLC = tested on: HOP-92 NSCLC
HS 578T breast = tested on: HS 578T breast
HT29 colon = tested on: HT29 colon
IGROV1 ovarian = tested on: IGROV1 ovarian
K-562 leukemia = tested on: K-562 leukemia
KM12 colon = tested on: KM12 colon
LOX IMVI melanoma = tested on: LOX IMVI melanoma
M14 melanoma = tested on: M14 melanoma
MALME-3M melanoma = tested on: MALME-3M melanoma
MCF7 breast = tested on: MCF7 breast
MDA-MB-231 breast = tested on: MDA-MB-231 breast
MDA-MB-435 = tested on: MDA-MB-435
MDA-N = tested on: MDA-N
MOLT-4 leukemia = tested on: MOLT-4 leukemia
NCI-H226 lung = tested on: NCI-H226 lung
NCI-H23 lung = tested on: NCI-H23 lung
NCI-H460 lung = tested on: NCI-H460 lung
NCI-H522 lung = tested on: NCI-H522 lung
NCI/ADR-RES ovarian = tested on: NCI/ADR-RES ovarian
OVCAR-3 ovarian = tested on: OVCAR-3 ovarian
OVCAR-4 ovarian = tested on: OVCAR-4 ovarian
OVCAR-5 ovarian = tested on: OVCAR-5 ovarian
OVCAR-8 ovarian = tested on: OVCAR-8 ovarian
PC-3 prostate = tested on: PC-3 prostate
RPMI-8226 leukemia = tested on: RPMI-8226 leukemia
RXF 393 renal = tested on: RXF 393 renal
SF-268 CNS = tested on: SF-268 CNS
SF-295 CNS = tested on: SF-295 CNS
SF-539 CNS = tested on: SF-539 CNS
SK-MEL-2 melanoma = tested on: SK-MEL-2 melanoma
SK-MEL-28 melanoma = tested on: SK-MEL-28 melanoma
SK-MEL-5 melanoma = tested on: SK-MEL-5 melanoma
SK-OV-3 ovarian = tested on: SK-OV-3 ovarian
SN12C renal = tested on: SN12C renal
SNB-19 CNS = tested on: SNB-19 CNS
SNB-75 CNS = tested on: SNB-75 CNS
SR leukemia = tested on: SR leukemia
SW-620 colon = tested on: SW-620 colon
T-47D breast = tested on: T-47D breast
TK-10 renal = tested on: TK-10 renal
U251 CNS = tested on: U251 CNS
UACC-257 melanoma = tested on: UACC-257 melanoma
UACC-62 melanoma = tested on: UACC-62 melanoma
UO-31 renal = tested on: UO-31 renal

Measured: GI50

CCC1C(OC(=O)C(O)(c2ccccc2)c2ccccc2)C(C)(C)C1N1CCCCC1 (stereo not drawn)
inactive: 786-0 renal 41.2 µM | A498 renal 75.5 µM | A549 NSCLC 48.7 µM | ACHN renal 80.8 µM | BT-549 breast 43.6 µM | CAKI-1 renal > 100 µM | CCRF-CEM leukemia 44.7 µM | COLO 205 colon 28.1 µM | DU-145 prostate > 100 µM | EKVX NSCLC 34.3 µM | HCT-116 colon 35.1 µM | HCT-15 colon 43.5 µM | HL-60(TB) leukemia 26.1 µM | HOP-62 NSCLC 36.4 µM | HOP-92 NSCLC 34.2 µM | HS 578T breast 26.2 µM | HT29 colon 16.2 µM | IGROV1 ovarian 97.6 µM | K-562 leukemia 44.1 µM | KM12 colon 47 µM | LOX IMVI melanoma 30.6 µM | M14 melanoma 15.7 µM | MALME-3M melanoma 23.2 µM | MCF7 breast 34.9 µM | MDA-MB-231 breast > 100 µM | MDA-MB-435 = 47.6 µM | MDA-N 40.4 µM | MOLT-4 leukemia 23.2 µM | NCI-H226 lung 25.9 µM | NCI-H23 lung 51.7 µM | NCI-H460 lung 42.8 µM | NCI-H522 lung 30.8 µM | NCI/ADR-RES ovarian 60.5 µM | OVCAR-3 ovarian 96.6 µM | OVCAR-4 ovarian > 100 µM | OVCAR-5 ovarian 52.1 µM | OVCAR-8 ovarian 88.7 µM | PC-3 prostate 29.8 µM | RPMI-8226 leukemia 34.4 µM | RXF 393 renal 31.8 µM | SF-268 CNS 69.8 µM | SF-295 CNS 29.4 µM | SF-539 CNS 60.2 µM | SK-MEL-2 melanoma 29.6 µM | SK-MEL-28 melanoma 43.4 µM | SK-MEL-5 melanoma 17.7 µM | SK-OV-3 ovarian 42.9 µM | SN12C renal 32.2 µM | SNB-19 CNS 71.6 µM | SNB-75 CNS 92.8 µM | SR leukemia 52.6 µM | SW-620 colon 42.4 µM | T-47D breast 44.8 µM | TK-10 renal > 100 µM | U251 CNS 81.9 µM | UACC-257 melanoma 30.2 µM | UACC-62 melanoma 55.5 µM | UO-31 renal 42 µM
